{"sequences": {"note": "By UniProt entry, the sequences of proteins in these tests, tags left out. Residues count along the entry.", "UniProt P02786, 89-760 limits assumed": "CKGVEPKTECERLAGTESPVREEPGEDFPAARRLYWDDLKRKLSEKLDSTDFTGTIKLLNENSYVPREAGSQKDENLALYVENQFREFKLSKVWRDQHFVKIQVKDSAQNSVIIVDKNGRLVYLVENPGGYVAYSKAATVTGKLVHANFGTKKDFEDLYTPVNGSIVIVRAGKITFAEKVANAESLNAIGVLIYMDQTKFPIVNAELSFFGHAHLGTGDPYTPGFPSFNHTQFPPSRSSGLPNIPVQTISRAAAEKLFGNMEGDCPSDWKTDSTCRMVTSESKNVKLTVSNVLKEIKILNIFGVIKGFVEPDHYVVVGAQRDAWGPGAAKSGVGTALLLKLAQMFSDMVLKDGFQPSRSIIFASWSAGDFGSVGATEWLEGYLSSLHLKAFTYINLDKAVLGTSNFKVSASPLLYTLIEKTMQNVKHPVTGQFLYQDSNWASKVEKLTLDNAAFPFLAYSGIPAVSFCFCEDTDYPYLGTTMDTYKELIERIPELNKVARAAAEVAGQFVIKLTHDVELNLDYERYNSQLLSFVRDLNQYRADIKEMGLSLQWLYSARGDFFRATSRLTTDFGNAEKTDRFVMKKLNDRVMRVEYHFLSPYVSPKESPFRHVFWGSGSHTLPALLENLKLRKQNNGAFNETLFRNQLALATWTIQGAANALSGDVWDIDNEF"}, "source": "patent US20250340595A1", "about": "(published 2025)", "key": {"[1]": {"biological_target": "T1, Human TfR1 protein (R&D Systems, 2474-TR or Acro Biosystems, CD1-H5243) (human, UniProt P02786 89-760)", "assay": "FP competition, competitor BCY15768"}, "[2]": {"biological_target": "T1, Human TfR1 protein (R&D Systems, …)", "assay": "FP competition, competitor BCY15768", "remark": "listed apart in the source"}}, "note": "Where two headings read alike, the source gives them in different places.", "data": [{"binder": "CPPDSHLGCISYC (3 Cys on TATB; N-terminal acetyl (Ac))", "note": "[BCY15893]", "values": [{"measurement": "Ki", "setting": "[1]", "value": 44, "unit": "nM"}, {"measurement": "Ki", "setting": "[2]", "value": 44, "unit": "nM"}]}, {"binder": "NEVCSPDAHLGCISYCA (3 Cys on TATB)", "note": "[BCY17112]", "values": [{"measurement": "Ki", "setting": "[1]", "value": 47, "unit": "nM"}, {"measurement": "Ki", "setting": "[2]", "value": 47, "unit": "nM"}]}, {"binder": "CPQDAYLGCISWC (3 Cys on TATB; N-terminal acetyl (Ac))", "note": "[BCY15890]", "values": [{"measurement": "Ki", "setting": "[1]", "value": 47, "unit": "nM"}]}, {"binder": "ACSPDAHLGCISYCPIVH (3 Cys on TATB)", "note": "[BCY17120]", "values": [{"measurement": "Ki", "setting": "[1]", "value": 52, "unit": "nM"}, {"measurement": "Ki", "setting": "[2]", "value": 52, "unit": "nM"}]}, {"binder": "CPGDAHLGCISYC (3 Cys on TATB; N-terminal acetyl (Ac))", "note": "[BCY15892]", "values": [{"measurement": "Ki", "setting": "[1]", "value": 63, "unit": "nM"}, {"measurement": "Ki", "setting": "[2]", "value": 63, "unit": "nM"}]}, {"binder": "NWNCSPDAHLGCISYC (3 Cys on TATB; [NMeTrp] in N-terminal extension)", "note": "[BCY18032]", "values": [{"measurement": "Ki", "setting": "[1]", "value": 105, "unit": "nM"}]}, {"binder": "ACSPDAHLGCISYCA (3 Cys on TATB; N-terminal acetyl (Ac))", "note": "[BCY15939]", "values": [{"measurement": "Ki", "setting": "[1]", "value": 125, "unit": "nM"}, {"measurement": "Ki", "setting": "[2]", "value": 125, "unit": "nM"}]}, {"binder": "CSADDWLGCISYC (3 Cys on TATB; N-terminal acetyl (Ac))", "note": "[BCY15894]", "values": [{"measurement": "Ki", "setting": "[1]", "value": 392, "unit": "nM"}, {"measurement": "Ki", "setting": "[2]", "value": 392, "unit": "nM"}]}, {"binder": "ACSPDAHLGCXSYCA (3 Cys on TATB; core as printed CSPDAHLGC[C5g]SYC)", "note": "[BCY16041]", "values": [{"measurement": "Ki", "setting": "[1]", "value": 2190, "unit": "nM"}, {"measurement": "Ki", "setting": "[2]", "value": 2190, "unit": "nM"}]}, {"binder": "ACSPDAHLGCXSYCA (3 Cys on TATB; core as printed CSPDAHLGC[Cbg]SYC)", "note": "[BCY16042]", "values": [{"measurement": "Ki", "setting": "[1]", "value": 3450, "unit": "nM"}, {"measurement": "Ki", "setting": "[2]", "value": 3450, "unit": "nM"}]}, {"binder": "ACSPDAHXGCISYCA (3 Cys on TATB; core as printed CSPDAH[Aib]GCISYC)", "note": "[BCY16037]", "values": [{"measurement": "Ki", "setting": "[1]", "value": 9220, "unit": "nM"}, {"measurement": "Ki", "setting": "[2]", "value": 9220, "unit": "nM"}]}, {"binder": "ACSPDAHLGCXSYCA (3 Cys on TATB; core as printed CSPDAHLGC[Cpg]SYC)", "note": "[BCY16044]", "values": [{"measurement": "Ki", "setting": "[1]", "value": 13900, "unit": "nM"}]}, {"binder": "ACSPDAHLGCXSYCA (3 Cys on TATB; core as printed CSPDAHLGC[Chg]SYC)", "note": "[BCY16043]", "values": [{"measurement": "Ki", "setting": "[1]", "value": 23600, "unit": "nM"}]}, {"binder": "NWNCSPDAHLGCISYC (3 Cys on TATB; N-terminal [AzPro] azidopropyl)", "note": "[BCY17872]", "values": [{"measurement": "Ki", "setting": "[2]", "value": 14, "unit": "nM"}]}, {"binder": "NWNCSPDAHLGCISYC (3 Cys on TATB; N-terminal acetyl (Ac))", "note": "[BCY17992]", "values": [{"measurement": "Ki", "setting": "[2]", "value": 11, "unit": "nM"}]}, {"binder": "NWNCSPDAHLGCISYC (3 Cys on TATB; D-tryptophan [dW] in N-terminal extension)", "note": "[BCY18031]", "values": [{"measurement": "Ki", "setting": "[2]", "value": 17, "unit": "nM"}]}, {"binder": "NWNCSPDAHLGCISYC (3 Cys on TATB; N-terminal acetyl (Ac); D-tryptophan [dW] in N-terminal extension)", "note": "[BCY18035]", "values": [{"measurement": "Ki", "setting": "[2]", "value": 17, "unit": "nM"}]}, {"binder": "CSPDAHLGCISYCEPWK (3 Cys on TATB; N-terminal acetyl (Ac); C-terminal [K(N3)] 6-azido lysine)", "note": "[BCY17873]", "values": [{"measurement": "Ki", "setting": "[2]", "value": 13, "unit": "nM"}]}, {"binder": "CSPDAHLGCISYCEPW (3 Cys on TATB; N-terminal [AzPro] azidopropyl)", "note": "[BCY17874]", "values": [{"measurement": "Ki", "setting": "[2]", "value": 13, "unit": "nM"}]}, {"binder": "CSPDAHLGCISYCK (3 Cys on TATB; N-terminal acetyl (Ac); C-terminal [K(N3)] 6-azido lysine)", "note": "[BCY17868]", "values": [{"measurement": "Ki", "setting": "[2]", "value": 23, "unit": "nM"}]}, {"binder": "CSXDAHLGCISYC (3 Cys on TATB; N-terminal [AzPro] azidopropyl; core as printed CS[HyP]DAHLGCISYC)", "note": "[BCY17878]", "values": [{"measurement": "Ki", "setting": "[2]", "value": 28, "unit": "nM"}]}, {"binder": "CSXDAHLGCISYC (3 Cys on TATB; N-terminal [AzPro] azidopropyl; core as printed CS[Aze]DAHLGCISYC)", "note": "[BCY17880]", "values": [{"measurement": "Ki", "setting": "[2]", "value": 29, "unit": "nM"}]}, {"binder": "NWNCSPDAHLGCISYCA (3 Cys on TATB)", "note": "[BCY17109]", "values": [{"measurement": "Ki", "setting": "[2]", "value": 11, "unit": "nM"}]}, {"binder": "ACSPDAHLGCISYCEPW (3 Cys on TATB)", "note": "[BCY17114]", "values": [{"measurement": "Ki", "setting": "[2]", "value": 32, "unit": "nM"}]}, {"binder": "CSXDAHLGCISYC (3 Cys on TATB; N-terminal acetyl (Ac); core as printed CS[HyP]DAHLGCISYC)", "note": "[BCY17989]", "values": [{"measurement": "Ki", "setting": "[2]", "value": 24, "unit": "nM"}]}]}
